# Test results as given in patent US9522903B2 (priority 2010, dated 2016).
# Test system: murine model of acute chlorine inhalation injury (CILI)
# Test: Murine model of acute chlorine inhalation injury (CILI)
# Settings: 3 mg to 80 mg per dose, IP at 2 h and 6 h after Cl2 exposure
substance,measurement,value
"2-cyano-1-(1-hydroxy-2,2,5,5-tetramethylpyrrolidin-3-yl)-3-(pyridin-3-yl)guanidine","lung injury, dose-response",attenuated lung injury in a dose-dependent manner
